According to ChEMBL document CHEMBL5728058, “3-(carboxymethyl)-8-amino-2-oxo-1,3-diaza-spiro-[4.5]-decane derivatives” (2020):
“And” between values parts separate entries of the source, which are not always exact repeats. Equal values may be shown once.

The chains behind the UniProt entries cited, without tags or fusion partners.
UniProt P35372, whole entry, looked up: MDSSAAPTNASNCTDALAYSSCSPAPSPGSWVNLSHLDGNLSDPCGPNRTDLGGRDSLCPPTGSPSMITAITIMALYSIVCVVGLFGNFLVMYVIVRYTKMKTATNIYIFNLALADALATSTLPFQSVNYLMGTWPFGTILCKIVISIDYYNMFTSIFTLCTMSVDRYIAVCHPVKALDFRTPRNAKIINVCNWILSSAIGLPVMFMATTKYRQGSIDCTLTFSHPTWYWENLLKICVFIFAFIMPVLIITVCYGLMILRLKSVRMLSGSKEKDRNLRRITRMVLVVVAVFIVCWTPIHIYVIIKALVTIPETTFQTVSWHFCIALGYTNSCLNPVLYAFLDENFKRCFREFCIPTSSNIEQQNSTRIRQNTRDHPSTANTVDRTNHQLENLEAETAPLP

target: Mu-type opioid receptor (Homo sapiens, UniProt P35372); assay: Human Mu-Opioid Peptide (hMOP) Receptor Binding Assay: The hMOP receptor binding assay was performed as homogeneous SPA-assay (scintillation proximity assay) using the assay buffer 50 mM TRIS-HCl (pH 7.4) supplemented with 0.052 mg/ml bovine serum albumin (Sigma-Aldrich Co., St. Louis, Mo.). The final assay volume (250 μl/well) included 1 nM of [N-allyl-2,3-3H]naloxone as ligand (PerkinElmer Life

Structure (SMILES) | Ki
COc1cnc(NC(=O)CN2C[C@]3(CC[C@](c4ccccc4)(N(C)C)CC3)N(CC3CCC3)C2=O)cn1 | 28.2 nM
CN(C)[C@]1(c2ccccc2)CC[C@]2(CC1)CN(CC(=O)Nc1cncnc1)C(=O)N2CC1CCC1 | 26.5 nM
CN(CCO)C(=O)CN1C[C@]2(CC[C@](c3cccc(F)c3)(N(C)C)CC2)N(CC2CCC2)C1=O | 185 nM
CN(C)[C@]1(c2ccccc2)CC[C@]2(CC1)CN(CC(=O)NCC1CCCC[C@H]1O)C(=O)N2CC1CCC1 (some centres undefined) | 20.5 nM
CN(C)[C@]1(c2ccccc2)CC[C@]2(CC1)CN(CC(=O)NCC(N)=O)C(=O)N2CC1(O)CCC1 | 106 nM
CN(C)[C@]1(c2ccccc2)CC[C@]2(CC1)CN(CC(=O)NCc1cccnn1)C(=O)N2CC1CCC1 | 43 nM
CN(C)C(=O)CNC(=O)CN1C[C@]2(CC[C@](c3ccccc3)(N(C)C)CC2)N(CC2CCC2)C1=O | 26.5 nM and 77.2 nM
CN(C)[C@]1(c2ccccc2)CC[C@]2(CC1)CN(CC(=O)NCCNS(C)(=O)=O)C(=O)N2CC1CCC1 | 43.5 nM
Cc1cnccc1NC(=O)CN1C[C@]2(CC[C@](c3ccccc3)(N(C)C)CC2)N(CC2CCC2)C1=O | 57 nM
CN[C@]1(c2ccccc2)CC[C@]2(CC1)CN(CC(=O)NCC(=O)N(C)C)C(=O)N2CC1CCC1 | 200 nM
CNC(=O)C(C)(C)N(C)C(=O)CN1C[C@]2(CC[C@](c3ccccc3)(N(C)C)CC2)N(CC2CCC2)C1=O | 390 nM
CN(C)[C@]1(c2ccccc2)CC[C@]2(CC1)CN(CC(=O)NCC1(O)CC1)C(=O)N2CC1CCC1 | 106 nM
CN[C@]1(c2ccccc2)CC[C@]2(CC1)CN(CC(N)=O)C(=O)N2CC1(O)CCC1 | 71 nM
Cc1ccncc1NC(=O)CN1C[C@]2(CC[C@](c3ccccc3)(N(C)C)CC2)N(CC2CCC2)C1=O | 20.5 nM
CN(C)[C@]1(c2ccccc2)CC[C@]2(CC1)CN(CC(=O)NC1CCS(=O)(=O)CC1)C(=O)N2CC1CCC1 | 30.5 nM and 90 nM
CN(C)[C@]1(c2ccccc2)CC[C@]2(CC1)CN(CC(=O)Nc1cccnn1)C(=O)N2CC1CCC1 | 32.5 nM
CN(C)[C@]1(c2ccccc2)CC[C@]2(CC1)CN(CC(=O)NCCC#N)C(=O)N2CC1CCC1 | 25.7 nM
CNC(=O)CN1C[C@]2(CC[C@](c3ccccc3)(N(C)C)CC2)N(CC2(C#N)CCC2)C1=O | 56 nM
CN(C)[C@]1(c2ccccc2)CC[C@@]2(CC1)CN(CC(=O)N1CCOCC1)C(=O)N2CC1CC1 | 15.5 nM
CNC(=O)CN1C[C@]2(CC[C@](c3ccccc3)(N(C)C)CC2)N(CC2(O)CCC2)C1=O | 84.5 nM and 520 nM

Structure (SMILES) | Ki
Cn1ccc(NC(=O)CN2C[C@]3(CC[C@](c4ccccc4)(N(C)C)CC3)N(CC3CCC3)C2=O)n1 | 71 nM
Cc1ccncc1CNC(=O)CN1C[C@]2(CC[C@](c3ccccc3)(N(C)C)CC2)N(CC2CCC2)C1=O | 15.5 nM
COCCCN1C(=O)N(CC(=O)N2CCNC(=O)C2)C[C@]12CC[C@](c1ccccc1)(N(C)C)CC2 | 320 nM
CSc1ccc(NC(=O)CN2C[C@]3(CC[C@](c4ccccc4)(N(C)C)CC3)N(CC3CCC3)C2=O)nc1 | 114 nM
CNC(=O)c1ccc(NC(=O)CN2C[C@]3(CC[C@](c4ccccc4)(N(C)C)CC3)N(CC3CCC3)C2=O)nc1 | 23 nM
CN(C)[C@]1(c2ccccc2)CC[C@@]2(CC1)CN(CC(=O)N1CCS(=O)(=O)CC1)C(=O)N2 | 11 nM
CSc1ccnc(NC(=O)CN2C[C@]3(CC[C@](c4ccccc4)(N(C)C)CC3)N(CC3CCC3)C2=O)c1 | 180 nM
COc1cnc(NC(=O)CN2C[C@]3(CC[C@](c4ccccc4)(N(C)C)CC3)N(CC3CCC3)C2=O)nc1 | 43 nM
Cc1ncc(NC(=O)CN2C[C@]3(CC[C@](c4ccccc4)(N(C)C)CC3)N(CC3CCC3)C2=O)cn1 | 21.5 nM
CN(C)[C@]1(c2ccccc2)CC[C@]2(CC1)CN(CC(=O)NCCS(C)(=O)=O)C(=O)N2CC1CCC1 | 13.7 nM and 31.7 nM
CN(C)[C@]1(c2ccccc2)CC[C@]2(CC1)CN(CC(=O)Nc1ccc(F)nc1)C(=O)N2CC1CCC1 | 47 nM
Cc1cccnc1NC(=O)CN1C[C@]2(CC[C@](c3ccccc3)(N(C)C)CC2)N(CC2CCC2)C1=O | 49 nM
CN(C)[C@]1(c2ccccc2)CC[C@]2(CC1)CN(CC(=O)Nc1cc(C#N)ccn1)C(=O)N2CC1CCC1 | 74.5 nM
CN(C)[C@]1(c2ccccc2)CC[C@]2(CC1)CN(CC(=O)N1CCN(S(C)(=O)=O)CC1)C(=O)N2CC1CCC1 | 49 nM
Cc1ccc(NC(=O)CN2C[C@]3(CC[C@](c4ccccc4)(N(C)C)CC3)N(CC3CCC3)C2=O)cn1 | 21.5 nM
CN(C)[C@]1(c2ccccc2)CC[C@]2(CC1)CN(CC(=O)NCC(=O)N1CCOCC1)C(=O)N2CC1CCC1 | 73.7 nM
Cc1ccccc1CNC(=O)CN1C[C@]2(CC[C@](c3ccccc3)(N(C)C)CC2)N(CC2CCC2)C1=O | 7.2 nM
COc1cncc(NC(=O)CN2C[C@]3(CC[C@](c4ccccc4)(N(C)C)CC3)N(CC3CCC3)C2=O)n1 | 53 nM
CN(C)[C@]1(c2ccccc2)CC[C@]2(CC1)CN(CC(=O)Nc1cccnc1)C(=O)N2CC1(O)CCC1 | 41 nM
CN(C)[C@]1(c2ccccc2)CC[C@]2(CC1)CN(CC(=O)Nc1nncs1)C(=O)N2CC1CCC1 | 64 nM

Structure (SMILES) | Ki
CN(C)[C@]1(c2ccccc2)CC[C@]2(CC1)CN(CC(=O)Nc1nccc(C#N)n1)C(=O)N2CC1CCC1 | 19.5 nM
CN(C)[C@]1(c2ccccc2)CC[C@]2(CC1)CN(CC(=O)Nc1ccc(S(C)(=O)=O)nc1)C(=O)N2CC1CCC1 | 24.5 nM
CN(C)[C@]1(c2ccccc2)CC[C@]2(CC1)CN(CC(=O)Nc1ncc(O)cn1)C(=O)N2CC1CCC1 | 73.5 nM
CSc1cccc(NC(=O)CN2C[C@]3(CC[C@](c4ccccc4)(N(C)C)CC3)N(CC3CCC3)C2=O)n1 | 125 nM
CN[C@]1(c2ccccc2)CC[C@]2(CC1)CN(CC(=O)NCCO)C(=O)N2CC1CCC1 | 114 nM
CN(C)[C@]1(c2ccccc2)CC[C@]2(CC1)CN(CC(=O)NCC1(O)CCCC1)C(=O)N2CC1CCC1 | 15 nM
COc1cccnc1NC(=O)CN1C[C@]2(CC[C@](c3ccccc3)(N(C)C)CC2)N(CC2CCC2)C1=O | 104 nM
CN(C)[C@]1(c2ccccc2)CC[C@]2(CC1)CN(CC(=O)Nc1cc(S(C)(=O)=O)ccn1)C(=O)N2CC1CCC1 | 60.5 nM
CN(C)[C@]1(c2ccccc2)CC[C@]2(CC1)CN(CC(=O)NCc1ccncn1)C(=O)N2CC1CCC1 | 10.4 nM
CN(C)[C@]1(c2ccccc2)CC[C@]2(CC1)CN(CC(=O)NCc1cnccn1)C(=O)N2CC1CCC1 | 12.5 nM
Cc1ncccc1NC(=O)CN1C[C@]2(CC[C@](c3ccccc3)(N(C)C)CC2)N(CC2CCC2)C1=O | 15 nM
COC(=O)c1cccc(NC(=O)CN2C[C@]3(CC[C@](c4ccccc4)(N(C)C)CC3)N(CC3CCC3)C2=O)n1 | 160 nM
CN(C)[C@]1(c2ccccc2)CC[C@]2(CC1)CN(CC(=O)NCC(N)=O)C(=O)N2CC1CCC1 | 23.3 nM and 61.5 nM
COC(=O)c1ccc(NC(=O)CN2C[C@]3(CC[C@](c4ccccc4)(N(C)C)CC3)N(CC3CCC3)C2=O)nc1 | 150 nM
Cc1ccc(NC(=O)CN2C[C@]3(CC[C@](c4ccccc4)(N(C)C)CC3)N(CC3CCC3)C2=O)nc1 | 44.5 nM
COCCCN1C(=O)N(CC(=O)NCC(N)=O)C[C@]12CC[C@](c1ccccc1)(N(C)C)CC2 | 86 nM
CN[C@]1(c2ccccc2)CC[C@]2(CC1)CN(CC(=O)N(C)C(C)(C)C(N)=O)C(=O)N2CC1CCC1 | 150 nM
CN(C)[C@]1(c2ccccc2)CC[C@]2(CC1)CN(CC(=O)N1CCn3ncnc3C1)C(=O)N2CC1CCC1 | 23 nM
CN(C)[C@]1(c2ccccc2)CC[C@]2(CC1)CN(CC(=O)Nc1cccc(C(N)=O)n1)C(=O)N2CC1CCC1 | 72 nM
